From PMC3199254 come the findings set out here.

This data set relates to O=P(O)(O)O. Description: cells, lysate or membranes. The following applies: intact delta-Pst2 cells grown 24 h in Pi-limiting BG-11; room temperature; transport Km.

In general, Km refers to the concentration of substrate that gives half-maximal velocity. For “Pst1 (Synechocystis sp. PCC 6803 substr. Kazusa)”, the Km is 5.16 µM.
